Our source for the Ki values is US10065970B2 (Genentech, Inc., priority 2015, dated 2018).

By UniProt entry, the sequences of proteins in these tests, tags left out.
UniProt P42336, whole entry: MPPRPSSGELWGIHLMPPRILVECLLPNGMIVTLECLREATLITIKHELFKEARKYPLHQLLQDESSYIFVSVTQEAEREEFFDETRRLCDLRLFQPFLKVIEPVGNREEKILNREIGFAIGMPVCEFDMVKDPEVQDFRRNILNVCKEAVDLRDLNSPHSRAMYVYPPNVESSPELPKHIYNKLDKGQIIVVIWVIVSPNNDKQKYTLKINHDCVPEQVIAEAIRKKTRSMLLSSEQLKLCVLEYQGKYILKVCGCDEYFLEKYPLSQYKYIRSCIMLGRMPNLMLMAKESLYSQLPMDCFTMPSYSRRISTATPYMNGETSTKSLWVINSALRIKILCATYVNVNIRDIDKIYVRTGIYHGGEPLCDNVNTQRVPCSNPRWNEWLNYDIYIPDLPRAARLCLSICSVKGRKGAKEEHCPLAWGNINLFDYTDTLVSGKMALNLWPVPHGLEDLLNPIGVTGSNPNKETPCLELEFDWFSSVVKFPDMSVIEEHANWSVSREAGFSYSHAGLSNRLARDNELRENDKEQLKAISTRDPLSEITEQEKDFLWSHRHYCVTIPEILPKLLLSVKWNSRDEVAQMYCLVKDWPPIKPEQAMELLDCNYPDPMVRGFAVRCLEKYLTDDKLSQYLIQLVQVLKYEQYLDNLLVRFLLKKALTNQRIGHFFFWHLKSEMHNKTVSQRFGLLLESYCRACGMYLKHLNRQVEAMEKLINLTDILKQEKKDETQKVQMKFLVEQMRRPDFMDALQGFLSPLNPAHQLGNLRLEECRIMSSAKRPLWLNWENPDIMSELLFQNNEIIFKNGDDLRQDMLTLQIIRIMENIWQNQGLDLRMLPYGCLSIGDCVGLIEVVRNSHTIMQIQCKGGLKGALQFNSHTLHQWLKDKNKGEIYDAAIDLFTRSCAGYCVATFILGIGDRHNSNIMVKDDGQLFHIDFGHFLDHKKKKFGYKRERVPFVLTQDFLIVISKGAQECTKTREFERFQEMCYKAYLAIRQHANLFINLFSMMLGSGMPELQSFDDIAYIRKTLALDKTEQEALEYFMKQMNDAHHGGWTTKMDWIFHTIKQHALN

Each structure is given as a SMILES string. Read-outs that look alike come from different tables or passages of the source.

The assay deals with PI3Kα (alpha) (Homo sapiens (Human), UniProt P42336). Nature of the assay: p110α (alpha) PI3K Binding Assay (ADP-Glo lipid kinase reaction). The format is biochemical. Conditions: read-out: PI3Kα-(alpha) ATP (Ki) micromolar. How it is done:
The ability of a compound of the invention to act as an inhibitor of PI3Kα was determined using the methods of Example 901.
PI3K Binding assays are intended for determining the biochemical potency of small molecule PI3K inhibitors. The PI3K lipid kinase reaction is performed in the presence of PIP2:3PS lipid substrate (Promega #V1792) and ATP. Following the termination if the kinase reaction, turnover of ATP to ADP by the phosphorylation of the lipid substrate is detected using the Promega ADP-Glo™ (Promega #V1792) assay. Reactions are carried out using the following conditions:
After 120 minutes of reaction time, the kinase reaction is terminated. Any ATP remaining after the reaction is depleted, leaving only ADP. Then the Kinase Detection Reagent is added to convert ADP to ATP, which is used in a coupled luciferin/luciferase reaction. The luminescent output is measured and is correlated with kinase activity.
All reactions are carried out at room temperature. A 3 μl mixture (1:1) of enzyme/lipid substrate solution is added to a 384 well white assay plate (Perkin Elmer #6007299) containing 50 nl of test compound or DMSO only for untreated controls. The reaction is started by the addition of 2 μl ATP/MgCl2. The kinase reaction buffer contains 50 mM HEPES, 50 mM NaCl, 3 mM MgCl2, 0.01% BSA, 1% DMSO, and enzyme and substrate concentrations as indicated in the above table. The reaction is stopped by the addition of 10 μL ADP-Glo reagent. Plates are read in a Perkin Elmer Envision system using luminescence mode. 10 point dose response curves are generated for each test compound. Ki values for each compound are determined using the Morrison Equation.

Where [1] appears, read: PI3K alpha 0.2 nM, ATP 40 μM, PIP2:3PS 50 μM, 120 min, room temperature, Ki by Morrison Equation.

Broadly, the Ki is a dissociation constant, usually derived from enzyme kinetics or from competition with a known ligand. On to `NC(=O)[C@H](Oc1cc2c3c(c1)nc(-c1cc(F)c4nc(N)sc4c1)n3CCO2)C1CC1` (single isomer, unassigned) [Example 291], for which the Ki under setting [1] is 7.62 nM.

`CC[C@H](C(N)=O)n1cc(-c2cc3c4c(c2)nc(-c2ccc5nc(N)sc5n2)n4CCCCO3)cn1` (single isomer, unassigned) [Example 299]: the Ki under setting [1] was 0.061 nM. In the case of `NC(=O)[C@@H](Nc1cc2c3c(c1)nc(-c1ncco1)n3CCCO2)C1CC1` [Example 142, (S)-2-Cyclopropyl-2-((1-(oxazol-2-yl)-8,9-dihydro-7H-6-oxa-2,9a-diazabenzo[cd]azulen-4-yl)amino)acetamide], the inhibition constant (Ki) was found to be 103 nM. Consider `NC(=O)[C@@H](Oc1cc2c3c(c1)nc(-c1ccc4oc(N)nc4c1)n3CCCO2)C1CC1` (single isomer, unassigned) [Example 260], for which, under setting [1], the Ki was 0.273 nM.
